According to PubChem BioAssay AID570 (The Scripps Research Institute Molecular Screening Center, 2006):
This is a selection; strong and weak results do not stand in their true shares. Calls of active or inactive are those of the source.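 Rule for the calls: active = inhibition above the mean of compound-free control plate wells plus 3 SD (cut at about 14% in these data); inactive = the rest.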

molecular target: Collagenase 3 (Homo sapiens) (UniProt P45452); test: human MMP13 inhibitors, primary screen, biochemical, FRET peptide cleavage (AID 570); details: MMP-13 fTHP FRET cleavage, Mca fluorescence; at 4 µM; hits give high values;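 note: 0% = DMSO wells and 100% = wells with reference MMP-13 inhibitor after basal subtraction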

Row | SMILES | inhibition
1 | Cc1nn(-c2ccccc2)c2c1P(=O)(N1CCOCC1)N(C)C(c1ccccc1)=N2 (stereo not given) | inactive: -2.9%
2 | O=P1(Nc2ccc(Br)cn2)COc2ccccc2OC1 | inactive: 0.8%
3 | Cc1ccc(OCC(=O)OC2CN3CCC2CC3)cc1 (stereo not given) | inactive: -1.8%
4 | O=P1(Nc2ncccn2)COc2ccccc2OC1 | inactive: -3.5%
5 | Clc1n[nH]nc1-c1nn[nH][15n]1 | inactive: -5.6%
6 | O=P1(Nc2ccccn2)COc2ccccc2OC1 | inactive: -3.4%
7 | Cc1cccc(OCC(=O)OC2CN3CCC2CC3)c1 (stereo not given) | inactive: 5.5%
8 | O=P(Nc1nccs1)(c1ccccc1)c1nc2ccccc2s1 (stereo not given) | inactive: 1.2%
9 | CCOP1(=S)c2c(C)nn(CCC#N)c2N=C(c2ccccc2F)N1C (stereo not given) | inactive: 6.8%
10 | CCOP1(=S)c2c(C)nn(CCC#N)c2N=C(c2ccc(F)cc2)N1C (stereo not given) | inactive: -8.9%
11 | O=C(OC1CN2CCC1CC2)C12CC3CC(CC(C3)C1)C2 (stereo not given) | inactive: -3%
12 | O=C(COc1ccccc1)OC1CN2CCC1CC2 (stereo not given) | inactive: -1.5%
13 | COP1(=S)c2c(C)nn(CCC#N)c2N=C(c2ccc(F)cc2)N1C (stereo not given) | inactive: 0.7%
14 | CCc1nc2c(n1)c1c(non1O)c1c2no[n+]1[O-] | inactive: 4.2%
15 | Cc1c2non([O-])c-2c(C)[n+](=O)[n+]1[O-] | inactive: -4.2%
16 | COC(=O)c1cc2c(s1)N=C(c1ccccc1)N(C)P2(=O)N1CCOCC1 (stereo not given) | inactive: 2%
17 | O=P1(Nc2nc3ccc(Cl)cc3s2)COc2ccccc2O1 (stereo not given) | inactive: 1.8%
18 | c1nnnn1CCn1cnnn1 | inactive: -0.3%
19 | O=P(Nc1nccs1)(c1ccccc1)c1ccccc1 | inactive: -0.4%
20 | O=C(OC1CN2CCC1CC2)c1cccc(Cl)c1 (stereo not given) | inactive: 0%
